Screening data (PubChem BioAssay)
UUG fidelity: modulators of yeast start codon fidelity, primary screen, whole organism, S. cerevisiae, single point, plate reader; S. cerevisiae UUG-firefly luciferase reporter, luminescence/redox ratio; activity score, % at 18.7 µM; 0.13% of 350,000 active; AID 602363, 2012;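 active = replicate mean at a twofold rise or more, about +100% in these data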;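 also: firefly luciferase made from a UUG start codon reports start codon fidelity; reporter light over untreated wells divided by growth signal over untreated wells; some hits fall short of that in this replicate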
PDI inh: PDI (human) enzyme inhibition; PDI insulin aggregation turbidity, A650, 90 min; 0.052% of 350,000 active; inhibition, % at 10 µM;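 active = mean inhibition across replicates of 30% or more, whatever share of single replicates reach that level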
SIRT5 block: blocks human SIRT5 desuccinylation of peptide | Q9NXA8 | Purified SirT5, succinyl-peptide AMC, trypsin-coupled fluorescence | inhibition, % at 15 µM | 1.1% of 330,000 active; in the data active = inhibition above about 15%
FGF22 binding: FGF22 (human) thermal shift binding; recombinant FGF22 thermal shift, SYPRO orange fluorescence; percent of sucrose octasulfate shift, DMSO zero; activity (Tm shift, normalised), % at 9.99 µM; 1.5% of 340,000 active; Q9HCT0;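 active = mean Tm shift, scaled 0 neutral to 100 positive control, at about 1.3% or above, every replicate too, limit read from the data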
ERp5 inh: blocks human ERp5 reductase activity on insulin; Q15084; ERp5 insulin aggregation, absorbance 650 nm, 90 min; inhibition, % at 9.99 µM; 0.05% of 350,000 active;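 active = mean replicate inhibition above about 25%, with every replicate also reaching it, limit read from the data, passing the limit was not always enough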
S100A4 inh HTS: S100A4-myosin IIA interaction inhibition. P26447. 0.14% of 360,000 active. AID 652163. S100A4/TAMRA-MyoIIA peptide fluorescence polarization. inhibition, % at 10.7 µM;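 active = mean inhibition of at least 70% across replicates, with every replicate also reaching that level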
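Assay system: human S100A4 monomer with TAMRA-labelled myosin IIA peptide / Buffer or medium: Calcium-containing HEPES buffer, pH 7.2 / Reagent: TAMRA-labelled myosin IIA heavy-chain peptide probe, 5 nM / Compound: one dose per compound / Timing: polarization read 5 min after assay mix addition, stable 5–60 min / Benchmarks: neutral control DMSO, positive control TFP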
Starred values were filed as active, the others as inactive; x = no result. Hits are enriched below; roughly 2.2% of the tested compounds scored in any of these assays.

SMILES | UUG fidelity | PDI inh | SIRT5 block | FGF22 binding | ERp5 inh | S100A4 inh HTS
CO[C@H]1CN(C)C(=O)c2ccc(NS(=O)(=O)CC(F)(F)F)cc2OC[C@H](C)N(C)C[C@@H]1C | x | x | 24.8* | -0.1 | -2.5 | -2.0
CCOc1ccc(C(C(=O)NCC2CCCO2)N(Cc2cccs2)C(=O)c2snc(C(N)=O)c2N)cc1 (stereo unspecified) | -10.7 | 5.2 | 25.2* | 0.0 | -0.5 | 1.9
O=C(c1cc([N+](=O)[O-])cc([N+](=O)[O-])c1)N1CCCc2ccccc21 | x | -1.9 | -2.7 | 43.1* | 2.5 | 2.4
O=C(N/N=C1/CCCc2ccccc21)c1cc([N+](=O)[O-])cc([N+](=O)[O-])c1 | x | x | 1.1 | 42.9* | -2.4 | 4.8
O=C(c1cccc([N+](=O)[O-])c1)N1CCc2ccccc21 | -9.4 | -3.8 | 0.2 | 0.2 | 7.7 | -2.8
O=C(N/N=C1\CCCc2oc(C(=O)O)cc21)c1ccccc1 | -8.5 | 9.8 | 1.9 | 43.2* | -1.8 | -1.4
CCN(CC)S(=O)(=O)c1ccc(Cl)c(C(=O)N2CCc3ccccc32)c1 | x | -1.9 | x | x | x | x
O=C(N/N=C1\CCCc2ccccc21)c1cccc([N+](=O)[O-])c1 | -18.9 | -2.0 | -0.8 | 0.2 | -1.6 | -1.8
CCN(CC)S(=O)(=O)c1ccc(C(=O)N2CCc3ccccc32)cc1 | x | -0.4 | 16.2* | 42.3 | -3.3 | -2.4
O=C(c1ccccn1)N1CC(=O)N2[C@@H](CO)[C@@H](c3ccc(C#CCc4ccccc4)cc3)[C@@H]2C1 | x | x | 3.1 | x | 5.1 | 14.8
CNC[C@@H]1OCCCC[C@@H](C)Oc2ccc(NS(=O)(=O)c3ccc(OC)cc3)cc2C(=O)N([C@H](C)CO)C[C@@H]1C | 6.2 | x | -0.5 | 0.0 | -2.1 | -23.1
O=C(NCc1ccc(F)cc1)Nc1cccc(Cl)c1 | x | 2.2 | 0.7 | 43.7* | -0.7 | -2.1
Cc1nn(C)c(C)c1CNC(=O)Nc1cccc(Cl)c1 | x | -1.3 | -4.2 | 43.4* | -1.8 | 1.4
Cc1nn(C)c(C)c1CNC(=O)Nc1ccc(Cl)cc1 | -28.3 | 2.1 | 3.4 | 0.0 | -0.6 | 1.3
Cc1noc(C)c1S(=O)(=O)Nc1ccc2c(c1)C(=O)N([C@@H](C)CO)C[C@@H](C)[C@H](CN(C)Cc1ccc(Cl)c(Cl)c1)OCCCC[C@@H](C)O2 | 18.1 | x | 20.1* | -0.9 | -1.2 | 0.8
Cc1noc(C)c1S(=O)(=O)Nc1ccc2c(c1)C(=O)N([C@H](C)CO)C[C@H](C)[C@H](CN(C)Cc1ccc(Cl)c(Cl)c1)OCCCC[C@@H](C)O2 | 10.6 | x | 9.2 | -1.0 | -13.6 | -4.3
Cc1noc(C)c1S(=O)(=O)Nc1ccc2c(c1)C(=O)N([C@@H](C)CO)C[C@@H](C)[C@@H](CN(C)Cc1ccc(Cl)c(Cl)c1)OCCCC[C@@H](C)O2 | 23.9 | x | 17.0* | -0.9 | -6.4 | 0.4
Cc1onc(-c2ccccc2)c1C(=O)c1c[nH]c(C(=O)NCc2ccncc2)c1 | x | -3.3 | -4.1 | -0.1 | 1.4 | 1.6
Cc1onc(-c2ccccc2)c1C(=O)c1c[nH]c(C(=O)NCc2ccccn2)c1 | -18.4 | 2.8 | 19.1* | -0.4 | 1.4 | 1.9
CC(Sc1nc2ccccc2c(=O)n1CCCN1CCOCC1)C(=O)N1CCc2ccccc21 (stereo unspecified) | x | -3.6 | -6.5 | 43.6* | 2.6 | -5.4

The last 3 records of the part before open the next one:
SMILES | UUG fidelity | PDI inh | SIRT5 block | FGF22 binding | ERp5 inh | S100A4 inh HTS
Cc1onc(-c2ccccc2)c1C(=O)c1c[nH]c(C(=O)NCc2ccncc2)c1 | x | -3.3 | -4.1 | -0.1 | 1.4 | 1.6
Cc1onc(-c2ccccc2)c1C(=O)c1c[nH]c(C(=O)NCc2ccccn2)c1 | -18.4 | 2.8 | 19.1* | -0.4 | 1.4 | 1.9
CC(Sc1nc2ccccc2c(=O)n1CCCN1CCOCC1)C(=O)N1CCc2ccccc21 (stereo unspecified) | x | -3.6 | -6.5 | 43.6* | 2.6 | -5.4
CC(C)OCCCn1c(SCC(=O)N2CCc3ccccc32)nc2ccccc2c1=O | x | 12.6 | 20.6* | 0.0 | -1.8 | -3.5
Cc1cccc(NC(=O)C(C)Sc2nc3ccccc3c(=O)n2CCCN2CCOCC2)c1 (stereo unspecified) | 0.9 | -54.9 | -1.3 | 0.0 | -1.5 | 6.1
COc1ccc(NC(=O)N(C)C[C@H]2Oc3ncc(-c4ccc(C#N)cc4)cc3C(=O)N([C@H](C)CO)C[C@@H]2C)cc1 | 10.3 | x | -17.7 | 0.4 | 2.5 | 3.0
CC(C)C#Cc1cnc2c(c1)C(=O)N([C@H](C)CO)C[C@H](C)[C@H](CN(C)C(=O)C1CCC1)O2 | 11.4 | x | 4.3 | -0.3 | 1.0 | 13.2
CCCC#Cc1ccc(CC[C@H]2O[C@H]3CC[C@@H](CO)O[C@H]3C[C@H]2n2cc(C(C)(C)O)nn2)cc1 | x | x | x | -0.2 | 3.0 | -15.5
N#C[C@@H]1[C@H](c2ccccc2C2=CCCCC2)[C@H](CO)N1C(=O)NC1CCCC1 | x | x | 0.3 | -0.5 | -1.2 | 130.8*
N#C[C@H]1[C@H](c2ccccc2C2=CCCCC2)[C@H](CO)N1C(=O)NC1CCCC1 | x | x | 0.8 | -0.3 | -3.9 | -15.1
COCC#Cc1cnc2c(c1)C(=O)N([C@H](C)CO)C[C@H](C)[C@H](CN(C)C(=O)c1cccc(F)c1)O2 | -2.0 | x | -5.5 | -0.1 | -5.5 | 11.0
C[C@H]1CCCCO[C@@H](CN(C)C(=O)NC2CCCCC2)[C@@H](C)CN([C@@H](C)CO)C(=O)c2cc(NC(=O)c3ccccc3)ccc2O1 | 39.0 | x | x | -0.2 | x | x
Cc1ccc(C(=O)N/C(=C\c2cccc([N+](=O)[O-])c2)C(=O)Nc2cccc(C(=O)O)c2)cc1 | -4.9 | -5.9 | -3.5 | -0.1 | 0.7 | -7.6
COc1ccc(C(=O)N/C(=C\c2cccc([N+](=O)[O-])c2)C(=O)Nc2cccc(C(=O)O)c2)cc1 | x | -3.5 | -0.6 | 42.9* | -1.4 | 2.0
O=C(O)COc1ccc(/C=N/NC(=O)c2ccc(-c3csc(Nc4ccc(Cl)cc4)n3)cc2)cc1 | -10.9 | -2.0 | 28.4* | 0.3 | -5.1 | 0.8
CCOc1cc(/C=N/NC(=O)c2ccc(-c3csc(Nc4ccc(C)cc4)n3)cc2)ccc1OCC(=O)O | x | -3.0 | 1.8 | 0.0 | -7.4 | 0.3
O=C(N/N=C/c1ccc(OCc2cnc(Cl)s2)cc1)c1ccncc1 | x | 7.5 | 0.8 | 43.2* | -2.3 | 1.7
COc1ccccc1S(=O)(=O)N[C@H]1CC[C@H](CCn2cc(C3CCCCC3)nn2)O[C@H]1CO | x | x | -3.9 | -0.1 | 0.6 | 4.9
CCOc1cc(C)c(Cl)cc1S(=O)(=O)NCc1ccco1 | 309.7* | 6.1 | x | x | x | x
CCNc1ccc(C(=O)OCC(=O)N(Cc2ccccc2)C(C)(C)C)cc1[N+](=O)[O-] | x | 3.9 | -2.9 | 43.0* | 2.1 | -1.8
NC(=O)CCN1CCC(c2nc3ccccc3s2)CC1 | -10.3 | 10.1 | 23.5* | 0.0 | 1.1 | -3.8
CCNC(=O)N1CCC(c2nc3ccccc3s2)CC1 | -13.1 | 13.0 | -3.4 | 0.4 | -2.1 | 1.8
CCS(=O)(=O)Nc1ccc2c(c1)C(=O)N(C)[C@@H]1CC[C@H](CC(=O)N[C@@H]3CCN(Cc4ccccc4)C3)O[C@@H]1CO2 | x | x | x | 0.0 | x | x
O=C(Nc1ccncc1)C1CCN(S(=O)(=O)c2cccc(C(F)(F)F)c2)CC1 | 13.4 | -0.1 | -3.4 | 0.1 | 27.3* | -21.7
O=C(C[C@@H]1C=C[C@H](NC(=O)c2ccncc2)[C@@H](CO)O1)Nc1ccc(-c2ccccc2)cc1 | -10.1 | x | 1.0 | 0.2 | -4.0 | 4.7

Single records (already shown).
Entry for `COc1ccc(C(=O)N/C(=C\c2cccc([N+](=O)[O-])c2)C(=O)Nc2cccc(C(=O)O)c2)cc1` → UUG fidelity = x; PDI inh = -3.5; SIRT5 block = -0.6; FGF22 binding = 42.9*; ERp5 inh = -1.4; S100A4 inh HTS = 2.0
Entry for `CCCC#Cc1ccc(CC[C@H]2O[C@H]3CC[C@@H](CO)O[C@H]3C[C@H]2n2cc(C(C)(C)O)nn2)cc1` → UUG fidelity = x; PDI inh = x; SIRT5 block = x; FGF22 binding = -0.2; ERp5 inh = 3.0; S100A4 inh HTS = -15.5
